Assay results from PubChem BioAssay AID1992 (Sanford-Burnham Center for Chemical Genomics, 2009).
This is a selection; strong and weak results do not stand in their true shares. The source made the active and inactive calls. Cut-off read from the data, not from the text of the source: active = inhibition above about 60%; inactive = the rest.

Sequences of proteins named here, by UniProt entry; tags and fusion partners are left off. A change or cut given only in a name is not applied to a line headed by its entry.
UniProt P51452: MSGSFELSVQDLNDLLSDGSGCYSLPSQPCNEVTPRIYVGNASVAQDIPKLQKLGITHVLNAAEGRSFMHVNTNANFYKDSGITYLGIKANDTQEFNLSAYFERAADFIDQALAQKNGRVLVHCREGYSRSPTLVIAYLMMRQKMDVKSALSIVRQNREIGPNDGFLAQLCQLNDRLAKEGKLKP

These compounds were tested against Dual specificity protein phosphatase 3 (Homo sapiens) (UniProt P51452) (assay: VHR1 phosphatase inhibitors, primary screen, biochemical, colorimetric, HTS (AID 1992)). Conditions: recombinant VHR phosphatase, colorimetric substrate read-out; at 20 µM; active compounds read high.

| Compound | inhibition |
| --- | --- |
| CCCCOP(=O)(OCCCC)SC | inactive: 1.3% |
| COC(=O)NC(Sc1ccc(Cl)cc1)C(Cl)Cl (stereo not given) | inactive: -13.5% |
| CCOC(=O)NC(Sc1nc2ccccc2o1)C(Cl)(Cl)Cl (stereo not given) | inactive: 28.7% |
| O=CNC(Sc1nc2ccccc2o1)C(Cl)(Cl)Cl (stereo not given) | inactive: 4.2% |
| CCCCSP(=O)(OCC(C)C)OCC(C)C | inactive: -8.3% |
| Cc1ccc(SC(NC(=O)c2ccccc2)C(Cl)Cl)cc1 (stereo not given) | inactive: -19.1% |
| Cc1cc(C)nc(SC(NC(=O)c2ccccc2)C(Cl)(Cl)Cl)n1 (stereo not given) | inactive: 13.1% |
| O=C(NC(SC1=NCCS1)C(Cl)(Cl)Cl)c1ccc(I)cc1 (stereo not given) | inactive: 11.9% |
| O=C(CF)NC(Sc1ccc(Cl)cc1)C(Cl)(Cl)Cl (stereo not given) | inactive: -4.7% |
| COC(=O)c1ccc(OP(=O)(Oc2ccc(Cl)cc2C)SCC(C)C)cc1 (stereo not given) | inactive: 1.7% |
